This is a selection; strong and weak results do not stand in their true shares. Activity calls are given as the source filed them.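 The calls were made as follows: active = inhibition above the batch mean plus 3 SD, with images confirmed as a hit by eye (cut at about 37% in these data); inconclusive = inhibition above that limit but hit not confirmed in images; inactive = inhibition not above that limit.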

We go through 30 compounds from PubChem BioAssay AID802 (Columbia University Molecular Screening Center, 2007).

The assay is described as follows: blockers of endothelial VCAM-1 upregulation by TNFa – imaging, HUVEC, TNFa stimulus, immunofluorescence, primary screen (AID 802).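 Also: 0% = TNF-stimulated DMSO wells and 100% = unstimulated control wells.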 The note with it: HUVEC TNFa-induced VCAM-1 immunofluorescence, high-content imaging; at 2 µM; active compounds read high.
Usually inhibition stands for the relative decrease from the control value, in per cent. `COc1ccccc1OP(C)(=O)Nc1c(C)cccc1C` (stereo not given): the inhibition is inactive: 14.3%.

On to `Cc1nc2ccc3ccccc3c2s1.O=[N+]([O-])c1cc([N+](=O)[O-])c(O)c([N+](=O)[O-])c1`, for which the inhibition is inactive: -14.7%.

Take `Cc1ccc(C)c(NP(C)(=O)Oc2ccccc2)c1` (stereo not given): the inhibition was inactive: 7.3%.

On to `Cc1cc(C)cc(OP(C)(=O)Nc2ccccn2)c1` (stereo not given), for which the inhibition was inactive: -10.4%.

On to `Cc1cc(C)cc(OP(C)(=O)Nc2ccc(C)cc2C)c1` (stereo not given), for which the inhibition was inactive: -27%.

Regarding `COc1ccc(OP(C)(=O)Nc2cccc(F)c2)cc1` (stereo not given), the inhibition was inactive: -2.7%.

Turning to `CP(=O)(Nc1ccccn1)Oc1ccc(Cl)cc1` (stereo not given), the inhibition is inactive: 5.8%.

For `CP(=O)(NC(=O)Nc1ccccc1)Oc1ccccc1` (stereo not given), the inhibition is inactive: -41.1%.

Regarding `CP(=S)(Nn1cnnc1)Oc1ccccc1` (stereo not given), the inhibition is inactive: -7.8%.

On to `CP(=O)(OC12CC3CC(CC(C3)C1)C2)OC12CC3CC(CC(C3)C1)C2`, for which the inhibition was inactive: -1.8%.

In the case of `CC(C)(C)c1ccc(OP(C)(=O)O)cc1`, the inhibition is inactive: -6.3%.

As for `CP(=O)(Nc1ccc(Cl)cc1)Oc1ccc(F)cc1` (stereo not given), the inhibition was inactive: 7%.

For `COc1ccccc1OP(C)(=O)Nc1c(C)n(C)n(-c2ccccc2)c1=O` (stereo not given), the inhibition is inactive: 3.5%.

`CP(=O)(Oc1ccccc1)N1CCOC1=O` (stereo not given): the inhibition is inactive: 15.3%.

On to `CCN(CC)CC(O)COC(=O)C(O)(c1ccccc1)C1CCCCC1` (stereo not given), for which the inhibition was inactive: -4%.

With `COc1ccccc1OP(C)(=O)Nc1ccc(C)cc1C` (stereo not given), the inhibition was inactive: 9.4%.

On to `CP(=O)(Nc1ccccn1)Oc1ccccc1` (stereo not given), for which the inhibition was inactive: 7.5%.

Regarding `CCc1ccc(OP(C)(=O)O)cc1`, the inhibition is inactive: 12%.

Consider `Cc1c(NP(C)(=O)Oc2ccc(C(C)C)cc2)c(=O)n(-c2ccccc2)n1C` (stereo not given), for which the inhibition is inactive: 9%.

With `COc1ccc(OP(C)(=O)Nc2ccccn2)cc1` (stereo not given), the inhibition was inactive: 20%.

Take `CN(C)CCOC(=O)C(O)(c1ccccc1)C1CCCC1` (stereo not given): the inhibition is inactive: -6.5%.

Regarding `Cc1nc2ccc3ccccc3c2o1.O=[N+]([O-])c1cc([N+](=O)[O-])c(O)c([N+](=O)[O-])c1`, the inhibition was inactive: 3.9%.

Regarding `COc1ccccc1OP(C)(=O)Nc1ccc(C)c(C)c1` (stereo not given), the inhibition was inactive: -2.1%.

Take `CP(=O)(Nc1ccccc1)Oc1ccc(F)cc1` (stereo not given): the inhibition is inactive: -10.3%.

Regarding `CCN(CC)CCCOC(=O)C(O)(c1ccccc1)C1CCCCC1` (stereo not given), the inhibition is inactive: -4.7%.

As for `CP(=O)(Nc1ccccc1F)Oc1ccccc1` (stereo not given), the inhibition was inactive: 1.9%.

As for `CP(=O)(Nc1ccc2c(c1)OCCO2)Oc1ccccc1` (stereo not given), the inhibition was inactive: 9.2%.

With `CCOP(C)(=S)SCC(=O)NC(C)(CC)C(=O)O` (stereo not given), the inhibition was inactive: -12.6%.

Consider `CN(C)CCOC(=O)C(O)(c1ccccc1)C1CCCCC1` (stereo not given), for which the inhibition was inactive: -1.3%.

As for `COc1ccc(OP(C)(=O)Nc2cccc(Br)c2)cc1` (stereo not given), the inhibition was inactive: 17.4%.
